We go through 26 molecules from article PMC7723054.

The other results are listed elsewhere or left out.

First the molecules themselves.
B1: hsa-mir-2113 (structured_RNA)
RNA: GGGAAUUAAGCCCACGCCUAAGCCUUGUGGUGUACGAAGUUUCAGCAAAUCCCGUUAAUAAGUAAGAGGAUUUGCUGAAGCUUCGUGCAC
B2: hsa-mir-635 (structured_RNA)
RNA: GGGAAACUCAGUGAAGGCUGCUAGAUACGGUGUACGAAGUUUCAGCGUCCAUUAGGCUUUGUUAUGGAAACUUCUCCUGAUCGCUGAAGCUUCGUGCAC
B3: hsa-mir-4785 (structured_RNA)
RNA: GGGACUCCAGCUUGAUCGAAAAUGUUGCGGUGUACGAAGUUUCAGCCUCCUCCGCUGCCGCCGGGAGAGGCUGAAGCUUCGUGCAC
B4: hsa-mir-1292 (structured_RNA)
RNA: GGGAAUGCGUGUUGGCGAGAGUUGCAUGGGUGUACGAAGUUUCAGCGCUGAGGUUGCGUUGACGCUCGCGCUGAAGCUUCGUGCAC
B5: hsa-mir-6772 (structured_RNA)
RNA: GGGAACUCCAGUUGCUGGGGAUACUACUGGUGUACGAAGUUUCAGCCUGAGGACUGAGGCUCACCUUGGCUGAAGCUUCGUGCAC
B6: hsa-mir-4725 (structured_RNA)
RNA: GGGAAGUCGGAAUUACGACGAUAUCCUUGGUGUACGAAGUUUCAGCCCACCCACCAGGGAGCUUUCCAUGGGCUGUGGGGCUGAAGCUUCGUGCAC
B7: hsa-mir-378g (structured_RNA)
RNA: GGGAUGGCGCAUUCGCAGGCAUUUAUCAGGUGUACGAAGUUUCAGCAGAAGACCUGCUGAAGCUUCGUGCAC
B8: hsa-mir-203a (structured_RNA)
RNA: GGGAGAUGGCAAAUGCUACGGGUUACCGGGUGUACGAAGUUUCAGCCAACAGUUCUGUAGCGCAAUUGUGGCUGAAGCUUCGUGCAC
B9: hsa-mir-548ab (structured_RNA)
RNA: GGGAACAGUCCAGGGGUUAUGUCCUGAUGGUGUACGAAGUUUCAGCUGCUAUUACUUGUAUUUAUUUGUAAUGCAGCUGAAGCUUCGUGCAC
B10: hsa-mir-125b-2 (structured_RNA)
RNA: GGGAACCCCACAUGUAAGAAGGAUCUACGGUGUACGAAGUUUCAGCGUGAGGUAUUUUAGUAACAUCACGCUGAAGCUUCGUGCAC
B11: hsa-mir-4697 (structured_RNA)
RNA: GGGAAAAUAGGUAAGAGACAAUGAUCGCGGUGUACGAAGUUUCAGCGACGUGAAGGGACCACAUCCCGCUUCAUGUCGCUGAAGCUUCGUGCAC
B12: hsa-mir-6515 (structured_RNA)
RNA: GGGAAACUGUCCCUGAAGCGGACCAGAGGGUGUACGAAGUUUCAGCGACAUCUGGGCCAACUCUGAUCUCGCUGAAGCUUCGUGCAC
B13: hsa-mir-4505 (structured_RNA)
RNA: GGGAAAUGAGGACGUUCAACUAUGCUCCGGUGUACGAAGUUUCAGCCGGACACCCGGCCUCCACUUUCUGUGGCAGGUACCUCCUCCAGCUGAAGCUUCGUGCAC
B14: hsa-mir-92a-1 (structured_RNA)
RNA: GGGAAUAACGGCCCUUAGAAAGACUCCGGGUGUACGAAGUUUCAGCAAUGCUGUGUUUCUGUAUGGUAUUGCUGAAGCUUCGUGCAC
B15: NEAT1_ParasoR_ID42 (structured_RNA)
RNA: GGGAAAGUUCUCCGGCCUGGAGUCACACGGUGUACGAAGUUUCAGCAGUGUCCAUUAUGUCACUGCUGAAGCUUCGUGCAC
B16: hsa-mir-3123 (structured_RNA)
RNA: GGGAAAACUAGCGGAUGCCUGGUGGAUGGGUGUACGAAGUUUCAGCUCCCAUUUCCACAUGGAGAGUGGAGCCCAGAGCUGAAGCUUCGUGCAC
B17: hsa-mir-675 (structured_RNA)
RNA: GGGAGCUUCGUUCAGUCGCAUGAAAACAGGUGUACGAAGUUUCAGCACAGUGGACUUGGUGACGCUGUGCUGAAGCUUCGUGCAC
B18: hsa-mir-1976 (structured_RNA)
RNA: GGGAGGUAACUUGUAGGCCGCCGUACAUGGUGUACGAAGUUUCAGCGGGUCCUAAGGUGUGUCCUCGCUGAAGCUUCGUGCAC
B19: hsa-mir-1258 (structured_RNA)
RNA: GGGACACCGCAGGUUUGUGUCAUCAUACGGUGUACGAAGUUUCAGCAACUCCUGCGAGUCCCUGGAGUUGCUGAAGCUUCGUGCAC
B20: hsa-mir-4797 (structured_RNA)
RNA: GGGAAAGUGGUGUCGCUCAACAGUCCCUGGUGUACGAAGUUUCAGCUGAAAGGUUUUUUCUCUCAGCUGAAGCUUCGUGCAC
B21: hsa-mir-135a-1 (structured_RNA)
RNA: GGGAAGACGGUUAUCGAUCCAUGACAUGGGUGUACGAAGUUUCAGCUAUGUGAUUCUACUGCUCACUCAUAUAGCUGAAGCUUCGUGCAC
B22: hsa-mir-6780b (structured_RNA)
RNA: GGGACUGGGCACAAGGACGUUGCAUAAAGGUGUACGAAGUUUCAGCGGAAGACACAUGAGCAGUGCCUCCACUUCACGCCUCUCCCGCUGAAGCUUCGUGCAC
B23: hsa-mir-1178 (structured_RNA)
RNA: GGGAAGCCCGUGGCCAAAUAUGUCAGUCGGUGUACGAAGUUUCAGCGCAUGCCCGCUGAAGCUUCGUGCAC
B24: hsa-mir-3159 (structured_RNA)
RNA: GGGAGGAGUCGUAGCCCUACCCCAUAAUGGUGUACGAAGUUUCAGCCCACGGGCUGGGCACAGUGGGCUGAAGCUUCGUGCAC
B25: hsa-mir-3977 (structured_RNA)
RNA: GGGAACAAGACUAGGGCCCACCAGUUGCGGUGUACGAAGUUUCAGCCUUAAGUGGUUCGGGUAAAUCACUUUAAGCUGAAGCUUCGUGCAC
B26: hsa-mir-3607 (structured_RNA)
RNA: GGGAACGUAUAGAUACUGCCAGCUAUGAGGUGUACGAAGUUUCAGCCAGUAUGAAUGAAUUCAUGAUACUGGCUGAAGCUUCGUGCAC

The first assay deals with T1, LIN28A (human?, UniProt Q9H9Z2 1-209).
T1 sequence: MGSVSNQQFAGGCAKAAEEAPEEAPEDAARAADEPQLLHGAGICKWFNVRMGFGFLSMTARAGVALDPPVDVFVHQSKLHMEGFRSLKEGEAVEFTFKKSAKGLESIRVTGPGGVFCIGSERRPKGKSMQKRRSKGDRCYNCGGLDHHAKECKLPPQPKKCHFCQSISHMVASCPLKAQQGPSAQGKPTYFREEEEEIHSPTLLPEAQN
The experiment in a line: FOREST: bead pull-down of RNA structure library v1, barcode microarray; U1A/LIN28A: 20 mM HEPES pH 7.5, 80 mM KCl, 20 mM NaCl, 10% glycerol, 2 mM DTT, 0.1 ug/uL BSA, 4 C; BG4/CIRBP/DHX36: 10 mM Tris-HCl pH 7.5, 100 mM KCl (or LiCl),; high values mean tight binding.
As to B1, the binding signal is -0.642 z-score.

B2 yielded a binding signal of -0.67 z-score.

In turn, B3 yielded a binding signal of -0.649 z-score.

In turn, B4 came in with a binding signal of -0.632 z-score.

Consider B5, for which the binding signal was -0.643 z-score.

B6 yielded a binding signal of -0.678 z-score.

Consider B7, for which the binding signal was -0.67 z-score.

For the molecule B8, the binding signal was -0.658 z-score.

As for B9, the binding signal is -0.675 z-score.

Take B10: the binding signal is -0.63 z-score.

The molecule B11 registered a binding signal of -0.679 z-score.

Take B12: the binding signal is -0.627 z-score.

The molecule B13 gave a binding signal of -0.637 z-score.

Turning to B14, the binding signal was -0.671 z-score.

Take B15: the binding signal is -0.623 z-score.

Turning to B16, the binding signal is -0.667 z-score.

B17 returned a binding signal of -0.662 z-score.

For B18, the binding signal is -0.678 z-score.

Turning to B19, the binding signal is -0.629 z-score.

The molecule B20 returned a binding signal of -0.634 z-score.

B21 yielded a binding signal of -0.661 z-score.

Regarding B22, the binding signal is -0.66 z-score.

B23 came in with a binding signal of -0.656 z-score.

In turn, B24 gave a binding signal of -0.67 z-score.

In turn, B25 registered a binding signal of -0.673 z-score.

On to B26, for which the binding signal is -0.678 z-score.

The target of another assay is T2, CIRBP (Homo sapiens, UniProt Q14011 1-172).
T2 sequence: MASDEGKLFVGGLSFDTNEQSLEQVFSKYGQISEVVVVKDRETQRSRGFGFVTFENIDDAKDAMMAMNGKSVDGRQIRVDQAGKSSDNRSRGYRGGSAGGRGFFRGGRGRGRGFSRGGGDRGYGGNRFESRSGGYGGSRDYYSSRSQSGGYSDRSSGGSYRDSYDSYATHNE
Described as above.
In the case of B1, the binding signal was -0.822 z-score.

Molecule B2 returned a binding signal of 0.987 z-score.

B3 displayed a binding signal of -0.164 z-score.

For the molecule B4, the binding signal is -0.586 z-score.

B5: the binding signal was -0.663 z-score.

B6: the binding signal turned out to be 0.095 z-score.

As for B7, the binding signal is 0.778 z-score.

For B8, the binding signal was -0.737 z-score.

The molecule B9 gave a binding signal of -0.249 z-score.

B10 yielded a binding signal of -0.496 z-score.

Consider B11, for which the binding signal was -0.0335 z-score.

B12 registered a binding signal of 0.476 z-score.

Molecule B13 yielded a binding signal of 0.0605 z-score.

Take B14: the binding signal was -0.136 z-score.

Molecule B15 came in with a binding signal of -0.324 z-score.

As for B16, the binding signal was 0.00805 z-score.

For B17, the binding signal is -0.29 z-score.

As for B18, the binding signal is -1.61 z-score.

Take B19: the binding signal was determined as 0.309 z-score.

B20 came in with a binding signal of -1.28 z-score.

With B21, the binding signal turned out to be 0.731 z-score.

In the case of B22, the binding signal was determined as 0.0459 z-score.

For the molecule B23, the binding signal was -0.207 z-score.

The molecule B24 returned a binding signal of -1.07 z-score.

The molecule B25 came in with a binding signal of 0.5 z-score.

In turn, B26 returned a binding signal of 0.215 z-score.

The target of the next assay is T3, DHX36 (Homo sapiens, UniProt Q9H2U1 1-1008).
T3 sequence: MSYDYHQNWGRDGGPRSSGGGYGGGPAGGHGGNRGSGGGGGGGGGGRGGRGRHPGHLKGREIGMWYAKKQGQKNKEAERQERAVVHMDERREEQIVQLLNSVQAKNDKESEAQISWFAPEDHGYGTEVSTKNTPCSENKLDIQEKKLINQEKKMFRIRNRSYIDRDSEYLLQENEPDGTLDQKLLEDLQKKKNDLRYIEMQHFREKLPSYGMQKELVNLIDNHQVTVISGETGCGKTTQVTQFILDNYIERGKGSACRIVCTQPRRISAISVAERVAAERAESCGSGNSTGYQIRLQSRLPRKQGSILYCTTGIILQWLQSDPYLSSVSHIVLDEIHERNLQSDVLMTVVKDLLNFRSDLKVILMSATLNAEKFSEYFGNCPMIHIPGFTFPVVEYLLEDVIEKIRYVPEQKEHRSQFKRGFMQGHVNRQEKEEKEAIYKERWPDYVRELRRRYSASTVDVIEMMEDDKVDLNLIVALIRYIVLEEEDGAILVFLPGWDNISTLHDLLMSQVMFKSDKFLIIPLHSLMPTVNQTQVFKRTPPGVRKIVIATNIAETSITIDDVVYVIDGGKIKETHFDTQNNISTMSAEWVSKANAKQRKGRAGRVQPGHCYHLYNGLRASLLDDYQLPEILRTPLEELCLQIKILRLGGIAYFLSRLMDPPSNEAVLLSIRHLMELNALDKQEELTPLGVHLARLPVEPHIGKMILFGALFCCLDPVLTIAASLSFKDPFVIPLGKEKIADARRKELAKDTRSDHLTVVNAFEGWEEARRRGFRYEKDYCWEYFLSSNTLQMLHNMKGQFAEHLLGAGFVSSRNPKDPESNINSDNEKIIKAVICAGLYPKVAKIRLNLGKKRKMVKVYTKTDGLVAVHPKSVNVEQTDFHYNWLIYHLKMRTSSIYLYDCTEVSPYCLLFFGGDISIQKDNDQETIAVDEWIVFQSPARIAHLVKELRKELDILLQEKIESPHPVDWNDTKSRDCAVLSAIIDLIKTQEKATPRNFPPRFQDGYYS
The assay is described as above.
In the case of B1, the binding signal was -0.859 z-score.

In turn, B2 gave a binding signal of -1.09 z-score.

Molecule B3 gave a binding signal of 0.199 z-score.

The molecule B4 came in with a binding signal of -1.21 z-score.

As for B5, the binding signal was -0.746 z-score.

Molecule B6 displayed a binding signal of -1.03 z-score.

Consider B7, for which the binding signal was -0.044 z-score.

Turning to B8, the binding signal was -0.145 z-score.

B9 yielded a binding signal of -0.434 z-score.

The molecule B10 showed a binding signal of -1.25 z-score.

Molecule B11 came in with a binding signal of 0.162 z-score.

Regarding B12, the binding signal is -0.438 z-score.

In turn, B13 registered a binding signal of -0.762 z-score.

In turn, B14 registered a binding signal of -0.602 z-score.

Molecule B15 registered a binding signal of -0.124 z-score.

As to B16, the binding signal was -0.248 z-score.

B17 displayed a binding signal of 0.893 z-score.

B18 gave a binding signal of -0.603 z-score.

As for B19, the binding signal was -0.394 z-score.

Molecule B20 showed a binding signal of -0.804 z-score.

The molecule B21 yielded a binding signal of -0.436 z-score.

B22 registered a binding signal of -0.463 z-score.

For B23, the binding signal was -0.425 z-score.

With B24, the binding signal was -0.405 z-score.

The molecule B25 came in with a binding signal of -0.201 z-score.

Turning to B26, the binding signal is -0.301 z-score.
